Sequences of proteins named here, by UniProt entry; tags and fusion partners are left off.
UniProt P11362, whole entry, looked up: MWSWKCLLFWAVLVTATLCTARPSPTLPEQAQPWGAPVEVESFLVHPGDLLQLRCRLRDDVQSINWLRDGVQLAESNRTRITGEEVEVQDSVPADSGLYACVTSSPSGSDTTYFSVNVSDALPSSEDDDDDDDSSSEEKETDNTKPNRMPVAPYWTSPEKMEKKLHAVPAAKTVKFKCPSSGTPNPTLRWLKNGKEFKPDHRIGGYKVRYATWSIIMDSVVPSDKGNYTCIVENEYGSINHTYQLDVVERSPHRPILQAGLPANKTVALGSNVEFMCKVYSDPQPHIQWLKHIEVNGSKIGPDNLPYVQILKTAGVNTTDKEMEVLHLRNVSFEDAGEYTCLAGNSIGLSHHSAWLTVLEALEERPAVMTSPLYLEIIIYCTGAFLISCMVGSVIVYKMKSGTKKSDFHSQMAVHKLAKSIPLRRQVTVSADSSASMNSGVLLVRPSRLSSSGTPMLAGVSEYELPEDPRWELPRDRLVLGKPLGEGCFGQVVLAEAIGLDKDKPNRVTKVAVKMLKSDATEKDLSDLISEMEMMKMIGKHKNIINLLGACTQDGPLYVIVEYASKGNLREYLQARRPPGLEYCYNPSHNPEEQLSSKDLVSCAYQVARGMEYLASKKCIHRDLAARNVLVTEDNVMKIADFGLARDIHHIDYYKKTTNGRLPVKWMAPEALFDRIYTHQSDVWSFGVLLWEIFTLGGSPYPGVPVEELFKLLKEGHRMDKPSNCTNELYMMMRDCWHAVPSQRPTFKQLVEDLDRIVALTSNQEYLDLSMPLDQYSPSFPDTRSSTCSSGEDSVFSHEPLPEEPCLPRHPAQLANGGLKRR

According to the kinase profiling compilation of Christmann-Franck et al. (2016):

Target: FGFR1 (human) (UniProt P11362)
Conditions: compound 10.0 µM

With `CO[C@@H]1[C@H](N(C)C(=O)c2ccccc2)C[C@H]2O[C@]1(C)n1c3ccccc3c3c4c(c5c6ccccc6n2c5c31)C(=O)NC4` the inhibition was 69%.
